Experimental data as given in ChEMBL document CHEMBL3779897, “Novel quinoline-derived mTOR inhibitors with remarkable enzymatic and cellular activities: design, synthesis and biological evaluation” (Medchemcomm, 2016).

Key:
Homo sapiens [1] = species on record: Homo sapiens; test: Selectivity ratio, ratio of IC50 for human recombinant PI3Kalpha to IC50 for human mTOR
Homo sapiens [2] = species on record: Homo sapiens; test: Selectivity ratio, ratio of IC50 for PI3Kbeta (unknown origin) to IC50 for human mTOR
Homo sapiens [3] = species on record: Homo sapiens; test: Selectivity ratio, ratio of IC50 for human PI3Kgamma to IC50 for human mTOR
Homo sapiens [4] = species on record: Homo sapiens; test: Selectivity ratio, ratio of IC50 for PI3Kdelta (unknown origin) to IC50 for human mTOR

Ratio IC50 (Homo sapiens [1]): 50 | Ratio IC50 (Homo sapiens [2]): > 167 | Ratio IC50 (Homo sapiens [3]): 17 | Ratio IC50 (Homo sapiens [4]): 70
Compound: CC(=O)Nc1cnc2ccc(-c3cnc4ccccc4c3)cc2c1Nc1ccc(N2CCN(C(C)=O)CC2)c(C(F)(F)F)c1
